From US7767409B2, “Method for detection of substance bound to nuclear receptor” (Fujikura Kasei Co., Ltd., priority 2005, dated 2010)

The chains behind the UniProt entries cited, without tags or fusion partners. Residues count along the entry.
UniProt Q92731, 264-498 limits assumed: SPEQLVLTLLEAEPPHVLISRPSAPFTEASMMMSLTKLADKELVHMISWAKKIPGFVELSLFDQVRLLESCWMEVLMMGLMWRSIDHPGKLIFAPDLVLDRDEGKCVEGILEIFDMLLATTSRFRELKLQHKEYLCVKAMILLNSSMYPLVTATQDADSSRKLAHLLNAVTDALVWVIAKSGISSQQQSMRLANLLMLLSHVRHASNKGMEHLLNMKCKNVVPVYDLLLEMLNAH

Target: T1, human estrogen receptor β-GST fusion protein (ER-β) (Homo sapiens, UniProt Q92731)
T1 construct: made in house; host or cells: Escherichia coli BL21
Assay: Assay of ligand using coactivator SRC1-bound plate, ER-β
Assay type: biochemical
Details: HRP-labeled anti-GST antibody, 450 nm, FIG. 6

In the case of `C[C@]12CC[C@@H]3c4ccc(O)cc4CC[C@H]3[C@@H]1CC[C@@H]2O` [17 β-estradiol], the “OD (binding of receptor to immobilized coactivator), agonist mode” value is reported as “increase in OD was observed”.
